The values below come from patent US12605350B2, “Composition for preventing, ameliorating, or treating disease caused by nitration of tyrosine in proteins comprising tyrosine as effective component” (INDUSTRY-ACADEMIC COOPERATION FOUNDATION GYEONGSANG …, priority 2020, dated 2026).

The subject of this assay is mouse model of epileptic seizure which has been induced to have seizure by kainic acid. In words: epileptic seizure induced by kainic acid: seizure level, bodyweight, survival. As to conditions: 5×L-Tyr (AIN-93G containing 905 mg/kg L-Tyr) compared to ND, kainic acid 30 mg/kg i.p.

`N[C@@H](Cc1ccc(O)cc1)C(=O)O` [L-tyrosine]: the seizure level entry is reported as “statistically significant decrease in seizure level”.
